# Data published in patent US8853236B2, “Formulations containing clopidogrel and sulfoalkyl ether cyclodextrin and methods of use” (Cydex Pharmaceuticals, Inc., priority 2007, dated 2014).
# “And” between values parts separate entries of the source, which are not always exact repeats. Equal entries are not always repeated. Where two headings read alike, the source gives them in different places.
# Assays:
# [1] = cited from earlier work
# [2] = Solubility of clopidogrel bisulfate with surfactant, with or without Captisol (Example 14); conditions: thermodynamic from solid, Concentration of Clopidogrel Solubilized, pH about 5.5
# [3] = FIG. 6b, 25° C., water, pH 5.5
smiles,measurement,setting,value
"COC(=O)[C@H](c1ccccc1Cl)N1CCc2sccc2C1.O=S(=O)(O)O [clopidogrel bisulfate, methyl (+)-(S)-α-(2-chlorophenyl)-6,7-dihydrothieno[3,2-c]pyridine-5(4H)-acetate sulfate (1:1)]",solubility,"physchem; pH 3, aqueous buffer",~5000 µg/mL
same,solubility,"physchem; pH 3.5, aqueous buffer",~1790 µg/mL
same,solubility,"physchem; pH 4, aqueous buffer",~279 µg/mL
same,solubility,"physchem; pH 4.5, aqueous buffer",~171 µg/mL
same,solubility,"physchem; pH 5.12, aqueous buffer",~83 µg/mL
same,solubility,"physchem; pH 6.6, aqueous buffer",~82 µg/mL
same,solubility in water,[1]; neutral pH,practically insoluble
same,solubility in water,[1]; pH 1,freely soluble
same,solubility,"[2]; 20 °C, pH 5.5, aqueous buffer, Table 14b: Captisol 0, Tween 80 0 (0%)",0.3 mM
same,solubility,"[2]; 20 °C, pH 5.5, aqueous buffer, Table 14d: Captisol 0, Solutol 0 (0%)",15 mM
same,solubility,"[2]; 20 °C, pH 5.5, aqueous with cosolvent or surfactant or cyclodextrin, Captisol 0, Solutol 10 mg/ml (1%)",8000 µM and 2500 µg/mL
same,solubility,"[2]; 20 °C, pH 5.5, aqueous with cosolvent or surfactant or cyclodextrin, Captisol 0, Solutol 25 mg/ml (2.5%)",29 mM
same,solubility,"[2]; 20 °C, pH 5.5, aqueous with cosolvent or surfactant or cyclodextrin, Captisol 0, Solutol 50 mg/ml (5%)",63 mM
same,solubility,"[2]; 20 °C, pH 5.5, aqueous with cosolvent or surfactant or cyclodextrin, Captisol 0, Solutol 100 mg/ml (10%)",95 mM
same,solubility,"[2]; 20 °C, pH 5.5, aqueous with cosolvent or surfactant or cyclodextrin, Captisol 0, Tween 80 0.00076 M (0.1%)",5 mM
same,solubility,"[2]; 20 °C, pH 5.5, aqueous with cosolvent or surfactant or cyclodextrin, Captisol 0, Tween 80 0.004 M (0.5%)",47 mM
same,solubility,"[2]; 20 °C, pH 5.5, aqueous with cosolvent or surfactant or cyclodextrin, Captisol 0, Tween 80 0.008 M (1%)",56 mM
same,solubility,"[2]; 20 °C, pH 5.5, aqueous with cosolvent or surfactant or cyclodextrin, Captisol 0, Tween 80 0.038 M (5%)",124 mM
same,solubility,"[2]; 20 °C, pH 5.5, aqueous with cosolvent or surfactant or cyclodextrin, Captisol 0, Tween 80 0.076 M (10%)",101 mM
same,solubility,"[2]; 20 °C, pH 5.5, aqueous with cosolvent or surfactant or cyclodextrin, Captisol 0, Tween 80 […] (2%)",50 mM
same,solubility,"[2]; 20 °C, pH 5.5, aqueous with cosolvent or surfactant or cyclodextrin, Captisol 0.92 M (20% w/v), Solutol 10 mg/ml (1%)",21 mM
same,solubility,"[2]; 20 °C, pH 5.5, aqueous with cosolvent or surfactant or cyclodextrin, Captisol 0.92 M (20% w/v), Solutol 25 mg/ml (2.5%)",43 mM
same,solubility,"[2]; 20 °C, pH 5.5, aqueous with cosolvent or surfactant or cyclodextrin, Captisol 0.92 M (20% w/v), Solutol 50 mg/ml (5%)",67 mM
same,solubility,"[2]; 20 °C, pH 5.5, aqueous with cosolvent or surfactant or cyclodextrin, Captisol 0.92 M (20% w/v), Solutol 100 mg/ml (10%)",71 mM
same,solubility,"[2]; 20 °C, pH 5.5, aqueous with cosolvent or surfactant or cyclodextrin, Captisol 0.92 M (20% w/v), Tween 80 0.00076 M (0.1%)",7 mM
same,solubility,"[2]; 20 °C, pH 5.5, aqueous with cosolvent or surfactant or cyclodextrin, Captisol 0.92 M (20% w/v), Tween 80 0.004 M (0.5%)",23 mM
same,solubility,"[2]; 20 °C, pH 5.5, aqueous with cosolvent or surfactant or cyclodextrin, Captisol 0.92 M (20% w/v), Tween 80 0.008 M (1%)",56 mM
same,solubility,"[2]; 20 °C, pH 5.5, aqueous with cosolvent or surfactant or cyclodextrin, Captisol 0.92 M (20% w/v), Tween 80 0.038 M (5%)",78 mM
same,solubility,"[2]; 20 °C, pH 5.5, aqueous with cosolvent or surfactant or cyclodextrin, Captisol 0.92 M (20% w/v), Tween 80 0.076 M (10%)",29 mM
same,solubility,"[2]; 20 °C, pH 5.5, aqueous with cosolvent or surfactant or cyclodextrin, Captisol 0.92 M (20% w/v), Tween 80 […] (2%)",64 mM
same,solubility,"[2]; 20 °C, pH 5.5, aqueous with cosolvent or surfactant or cyclodextrin, Table 14a: Captisol 0.92 M (20% w/v), Tween 80 0 (0%)",15 mM
same,solubility,"[2]; 20 °C, pH 5.5, aqueous with cosolvent or surfactant or cyclodextrin, Table 14c: Captisol 0.92 M (20% w/v), Solutol 0 (0%)",15 mM
same,solubility,"[2]; 22.5 °C, pH 5.5, aqueous buffer, Table 14b: Captisol 0, Tween 80 0 (0%)",110 µg/mL
same,solubility,"[2]; 22.5 °C, pH 5.5, aqueous buffer, Table 14d: Captisol 0, Solutol 0 (0%)",4690 µg/mL
same,solubility,"[2]; 22.5 °C, pH 5.5, aqueous with cosolvent or surfactant or cyclodextrin, Captisol 0, Solutol 25 mg/ml (2.5%)",9340 µg/mL
same,solubility,"[2]; 22.5 °C, pH 5.5, aqueous with cosolvent or surfactant or cyclodextrin, Captisol 0, Solutol 50 mg/ml (5%)",20300 µg/mL
same,solubility,"[2]; 22.5 °C, pH 5.5, aqueous with cosolvent or surfactant or cyclodextrin, Captisol 0, Solutol 100 mg/ml (10%)",30700 µg/mL
same,solubility,"[2]; 22.5 °C, pH 5.5, aqueous with cosolvent or surfactant or cyclodextrin, Captisol 0, Tween 80 0.00076 M (0.1%)",1670 µg/mL
same,solubility,"[2]; 22.5 °C, pH 5.5, aqueous with cosolvent or surfactant or cyclodextrin, Captisol 0, Tween 80 0.004 M (0.5%)",8890 µg/mL
same,solubility,"[2]; 22.5 °C, pH 5.5, aqueous with cosolvent or surfactant or cyclodextrin, Captisol 0, Tween 80 0.008 M (1%)",15200 µg/mL
same,solubility,"[2]; 22.5 °C, pH 5.5, aqueous with cosolvent or surfactant or cyclodextrin, Captisol 0, Tween 80 0.038 M (5%)",39900 µg/mL
same,solubility,"[2]; 22.5 °C, pH 5.5, aqueous with cosolvent or surfactant or cyclodextrin, Captisol 0, Tween 80 0.076 M (10%)",32600 µg/mL
same,solubility,"[2]; 22.5 °C, pH 5.5, aqueous with cosolvent or surfactant or cyclodextrin, Captisol 0, Tween 80 […] (2%)",16000 µg/mL
same,solubility,"[2]; 22.5 °C, pH 5.5, aqueous with cosolvent or surfactant or cyclodextrin, Captisol 0.92 M (20% w/v), Solutol 10 mg/ml (1%)",8900 µg/mL
same,solubility,"[2]; 22.5 °C, pH 5.5, aqueous with cosolvent or surfactant or cyclodextrin, Captisol 0.92 M (20% w/v), Solutol 25 mg/ml (2.5%)",17600 µg/mL
same,solubility,"[2]; 22.5 °C, pH 5.5, aqueous with cosolvent or surfactant or cyclodextrin, Captisol 0.92 M (20% w/v), Solutol 50 mg/ml (5%)",28000 µg/mL
same,solubility,"[2]; 22.5 °C, pH 5.5, aqueous with cosolvent or surfactant or cyclodextrin, Captisol 0.92 M (20% w/v), Solutol 100 mg/ml (10%)",29800 µg/mL
same,solubility,"[2]; 22.5 °C, pH 5.5, aqueous with cosolvent or surfactant or cyclodextrin, Captisol 0.92 M (20% w/v), Tween 80 0.00076 M (0.1%)",2300 µg/mL
same,solubility,"[2]; 22.5 °C, pH 5.5, aqueous with cosolvent or surfactant or cyclodextrin, Captisol 0.92 M (20% w/v), Tween 80 0.004 M (0.5%)",7400 µg/mL
same,solubility,"[2]; 22.5 °C, pH 5.5, aqueous with cosolvent or surfactant or cyclodextrin, Captisol 0.92 M (20% w/v), Tween 80 0.008 M (1%)",18100 µg/mL
same,solubility,"[2]; 22.5 °C, pH 5.5, aqueous with cosolvent or surfactant or cyclodextrin, Captisol 0.92 M (20% w/v), Tween 80 0.038 M (5%)",25100 µg/mL
same,solubility,"[2]; 22.5 °C, pH 5.5, aqueous with cosolvent or surfactant or cyclodextrin, Captisol 0.92 M (20% w/v), Tween 80 0.076 M (10%)",9220 µg/mL
same,solubility,"[2]; 22.5 °C, pH 5.5, aqueous with cosolvent or surfactant or cyclodextrin, Captisol 0.92 M (20% w/v), Tween 80 […] (2%)",20800 µg/mL
same,solubility,"[2]; 22.5 °C, pH 5.5, aqueous with cosolvent or surfactant or cyclodextrin, Table 14a: Captisol 0.92 M (20% w/v), Tween 80 0 (0%)",4690 µg/mL
same,solubility,"[2]; 22.5 °C, pH 5.5, aqueous with cosolvent or surfactant or cyclodextrin, Table 14c: Captisol 0.92 M (20% w/v), Solutol 0 (0%)",4690 µg/mL
same,slope of the phase solubility line (clopidogrel M versus SAE-CD M),[3],about 0.15
